{"source": "patent US20120108593A1", "about": "“Extreme temperature aqueous decontamination composition” (published 2012)", "test": "Live agent NMR testing (31P) against VX", "conditions": "25° C., 10 μL agent with 500 μL solution (FIG. 1)", "data": [{"smiles": "O=c1[nH]c(=O)n(Cl)c(=O)n1Cl", "values": [{"measurement": "decontamination of VX agent", "result": "completely decontaminated"}]}]}
